Reference: patent publication US20200024278A1, “COMPOSITION COMPRISING ANTIBIOTIC COMPOUND AND AN HETEROCYCLIC COMPOUND AND THEIR USE IN PREVENTING OR TREATING BACTERIAL INFECTIONS” (MUTABILIS, priority 2016, published 2020)

Legend:
Assay in all cases: MIC, broth microdilution (CLSI), substance alone or ATB combined with compound at 4 or 8 μg/mL
[1] = test system: SPN 49619; format: cell-based, S. pneumoniae
[2] = test system: SAU 29213; format: cell-based, S. aureus
[3] = test system: PAE 105250; format: cell-based, P. aeruginosa

CC1(C)S[C@@H]2[C@H](NC(=O)[C@H](N)c3ccc(O)cc3)C(=O)N2[C@H]1C(=O)O [AMX, Amoxicillin, reference compound]
0.125 µg/mL: MIC ([1]; Streptococcus pneumoniae, antibiotic alone) | MIC ATB combined with Example 1 @8 μg/ml ([1]; with Example 1 @8 μg/ml) | MIC ATB combined with Example 1 @8 μg/ml ([1]; with Example 1 at 8 μg/ml) | MIC ATB combined with Example 7 @8 μgml ([2]; with Example 7 at 8 μg/ml) | MIC ATB combined with Example 13 @8 μg/ml ([2]; with Example 13 at 8 μg/ml) | MIC ATB combined with Example 1 @8 μg/ml ([3]; with Example 1 @8 μg/ml) | MIC ATB combined with Example 1 @8 μg/ml ([3]; with Example 1 at 8 μg/ml)
